What was measured:
[1] = system: Lys(Dnp)-ATNATSIPRIVGG-Lys(Abz)
[2] = system: Lys(Dnp)-ATNATQFPRIVGG-Lys(Abz)
[3] = system: Lys(Dnp)-ATNATX4X3PRIVGG-Lys(Abz), X4 = G, X3 = G
[4] = system: Lys(Dnp)-ATNATSDPRIVGG-Lys(Abz)
[5] = system: Lys(Dnp)-ATNATFNPRIVGG-Lys(Abz)
[6] = system: Lys(Dnp)-QISNDTVSPRIVGG-Lys(Abz)
[7] = system: Lys(Dnp)-ATNATX4X3PRIVGG-Lys(Abz), X4 = Q, X3 = W
[8] = system: Lys(Dnp)-ATNATAPPRIVGG-Lys(Abz)
[9] = system: Lys(Dnp)-ATNATSVPRIVGG-Lys(Abz)
[10] = system: Lys(Dnp)-NRLAAALGIRIVGG-Lys(Abz)
[11] = system: Lys(Dnp)-ATNATWQPRIVGG-Lys(Abz)
[12] = system: Lys(Dnp)-ATNATNVPRIVGG-Lys(Abz)
[13] = system: Lys(Dnp)-ATNATX4X3PRIVGG-Lys(Abz), X4 = E, X3 = W
[14] = system: Lys(Dnp)-ATNATEEPRIVGG-Lys(Abz)
[15] = system: Lys(Dnp)-ATNATLAPRIVGG-Lys(Abz)
[16] = system: Lys(Dnp)-ATNATNTPRIVGG-Lys(Abz)
[17] = system: Lys(Dnp)-ATNATFMPRIVGG-Lys(Abz)
[18] = system: Lys(Dnp)-ATNATYIPRIVGG-Lys(Abz)
[19] = system: Lys(Dnp)-ATNATETPRIVGG-Lys(Abz)
[20] = system: Lys(Dnp)-ATNATX4X3PRIVGG-Lys(Abz), X4 = D, X3 = F
[21] = system: Lys(Dnp)-TVELQGVVPRIVGG-Lys(Abz)
[22] = system: Lys(Dnp)-ATNATALPRIVGG-Lys(Abz)
[23] = system: Lys(Dnp)-ATNATIAPRIVGG-Lys(Abz)
[24] = system: Lys(Dnp)-ATNATX4X3PRIVGG-Lys(Abz), X4 = Q, X3 = T
[25] = system: Lys(Dnp)-ATNATYKPRIVGG-Lys(Abz)
[26] = system: Lys(Dnp)-ATNATDDPRIVGG-Lys(Abz)
[27] = system: Lys(Dnp)-ATNATMYPRIVGG-Lys(Abz)
[28] = system: Lys(Dnp)-ATNATANPRIVGG-Lys(Abz)
[29] = system: Lys(Dnp)-ATNATNKPRIVGG-Lys(Abz)
[30] = system: Lys(Dnp)-ATNATEDPRIVGG-Lys(Abz)
[31] = system: Lys(Dnp)-DFLAEGGGVRIVGG-Lys(Abz)
[32] = system: Lys(Dnp)-ATNATX4X3PRIVGG-Lys(Abz), X4 = N, X3 = Y
[33] = system: Lys(Dnp)-ATNATX4X3PRIVGG-Lys(Abz), X4 = G, X3 = V
[34] = system: Lys(Dnp)-ATNATFIPRIVGG-Lys(Abz)
[35] = system: Lys(Dnp)-ATNATEKPRIVGG-Lys(Abz)
[36] = system: Lys(Dnp)-ATNATVAPRIVGG-Lys(Abz)
[37] = system: Lys(Dnp)-ATNATHSPRIVGG-Lys(Abz)
[38] = system: Lys(Dnp)-DNEEGFFSARIVGG-Lys(Abz)
[39] = system: Lys(Dnp)-PDNIAAWYLRIVGG-Lys(Abz)
[40] = system: Lys(Dnp)-ATNATX4X3PRIVGG-Lys(Abz), X4 = H, X3 = T
[41] = system: Lys(Dnp)-ATNATQDPRIVGG-Lys(Abz)
[42] = system: Lys(Dnp)-ATNATHNPRIVGG-Lys(Abz)
[43] = system: Lys(Dnp)-ATNATGNPRIVGG-Lys(Abz)
[44] = system: Lys(Dnp)-ATNATQNPRIVGG-Lys(Abz)

Human plasma purified α-thrombin
kcat/KM [1]: 1100 M⁻¹ s⁻¹ | FIIa kcat/KM [2]: 3600 M⁻¹ s⁻¹ | Specificity Ratio (FIIa/FXa) [2]: 25 | kcat/KM [2]: 3600 M⁻¹ s⁻¹ | FIIa kcat/KM [3]: 820 M⁻¹ s⁻¹ | Specificity Ratio (FIIa/FXa) [3]: 51 | kcat/KM [4]: 740 M⁻¹ s⁻¹ | FIIa kcat/KM [5]: 6200 M⁻¹ s⁻¹ | Specificity Ratio (FIIa/FXa) [5]: 31 | kcat/KM [5]: 6200 M⁻¹ s⁻¹ | FIIa kcat/KM [6]: 5300 M⁻¹ s⁻¹ | Functional Selectivity (Specificity*FIIa kcat/KM) [6]: 83000 | Specificity Ratio (FIIa/FXa) [6]: 16 | kcat/KM [6]: 5300 M⁻¹ s⁻¹ | FIIa kcat/KM [7]: 7800 M⁻¹ s⁻¹ | Specificity Ratio (FIIa/FXa) [7]: 6 | kcat/KM [8]: 1500 M⁻¹ s⁻¹ | kcat/KM [9]: 890 M⁻¹ s⁻¹ | FIIa kcat/KM [10]: 720 M⁻¹ s⁻¹ | Functional Selectivity (Specificity*FIIa kcat/KM) [10]: 1500 | Specificity Ratio (FIIa/FXa) [10]: 2 | kcat/KM [10]: 720 M⁻¹ s⁻¹ | FIIa kcat/KM [11]: 19000 M⁻¹ s⁻¹ | Functional Selectivity (Specificity*FIIa kcat/KM) [11]: 9.8e+06 | kcat/KM [11]: 19000 M⁻¹ s⁻¹ | kcat/KM [12]: 550 M⁻¹ s⁻¹ | FIIa kcat/KM [13]: 390 M⁻¹ s⁻¹ | Specificity Ratio (FIIa/FXa) [13]: 48 | kcat/KM [14]: 14 M⁻¹ s⁻¹ | FIIa kcat/KM [15]: 13000 M⁻¹ s⁻¹ | Functional Selectivity (Specificity*FIIa kcat/KM) [15]: 750000 | kcat/KM [15]: 13000 M⁻¹ s⁻¹ | kcat/KM [16]: 870 M⁻¹ s⁻¹ | FIIa kcat/KM [17]: 24000 M⁻¹ s⁻¹ | Functional Selectivity (Specificity*FIIa kcat/KM) [17]: 680000 | kcat/KM [17]: 24000 M⁻¹ s⁻¹ | kcat/KM [18]: 2100 M⁻¹ s⁻¹ | kcat/KM [19]: 390 M⁻¹ s⁻¹ | FIIa kcat/KM [20]: 600 M⁻¹ s⁻¹ | Specificity Ratio (FIIa/FXa) [20]: 57 | FIIa kcat/KM [21]: 12000 M⁻¹ s⁻¹ | Functional Selectivity (Specificity*FIIa kcat/KM) [21]: 1.3e+06 | Specificity Ratio (FIIa/FXa) [21]: 114 | kcat/KM [21]: 12000 M⁻¹ s⁻¹ | FIIa kcat/KM [22]: 6300 M⁻¹ s⁻¹ | Specificity Ratio (FIIa/FXa) [22]: 21 | kcat/KM [22]: 6300 M⁻¹ s⁻¹ | FIIa kcat/KM [23]: 8700 M⁻¹ s⁻¹ | Specificity Ratio (FIIa/FXa) [23]: 14 | kcat/KM [23]: 8700 M⁻¹ s⁻¹ | FIIa kcat/KM [24]: 7400 M⁻¹ s⁻¹ | Specificity Ratio (FIIa/FXa) [24]: 8 | Functional Selectivity (Specificity*FIIa kcat/KM) [25]: 990000 | kcat/KM [26]: 0.0022 M⁻¹ s⁻¹ | FIIa kcat/KM [27]: 12000 M⁻¹ s⁻¹ | Functional Selectivity (Specificity*FIIa kcat/KM) [27]: 1.3e+06 | kcat/KM [27]: 12000 M⁻¹ s⁻¹ | FIIa kcat/KM [28]: 4000 M⁻¹ s⁻¹ | Specificity Ratio (FIIa/FXa) [28]: 51 | kcat/KM [29]: 750 M⁻¹ s⁻¹ | kcat/KM [30]: 1200 M⁻¹ s⁻¹ | FIIa kcat/KM [31]: 410 M⁻¹ s⁻¹ | Functional Selectivity (Specificity*FIIa kcat/KM) [31]: 49000 | Specificity Ratio (FIIa/FXa) [31]: 121 | kcat/KM [31]: 410 M⁻¹ s⁻¹ | FIIa kcat/KM [32]: 780 M⁻¹ s⁻¹ | Specificity Ratio (FIIa/FXa) [32]: 52 | FIIa kcat/KM [33]: 1200 M⁻¹ s⁻¹ | Specificity Ratio (FIIa/FXa) [33]: 29 | FIIa kcat/KM [34]: 7000 M⁻¹ s⁻¹ | Specificity Ratio (FIIa/FXa) [34]: 45 | kcat/KM [35]: 650 M⁻¹ s⁻¹ | FIIa kcat/KM [36]: 4200 M⁻¹ s⁻¹ | Specificity Ratio (FIIa/FXa) [36]: 67 | kcat/KM [36]: 4200 M⁻¹ s⁻¹ | kcat/KM [37]: 1300 M⁻¹ s⁻¹ | FIIa kcat/KM [38]: 300 M⁻¹ s⁻¹ | Functional Selectivity (Specificity*FIIa kcat/KM) [38]: 390 | Specificity Ratio (FIIa/FXa) [38]: 1 | FIIa kcat/KM [39]: 98 M⁻¹ s⁻¹ | Functional Selectivity (Specificity*FIIa kcat/KM) [39]: 660 | Specificity Ratio (FIIa/FXa) [39]: 7 | kcat/KM [39]: 98 M⁻¹ s⁻¹ | FIIa kcat/KM [40]: 1500 M⁻¹ s⁻¹ | Specificity Ratio (FIIa/FXa) [40]: 30

Human plasma purified alpha-thrombin
FIIa kcat/KM [41]: 500 M⁻¹ s⁻¹ | Specificity Ratio (FIIa/FXa) [41]: 1 | FIIa kcat/KM [42]: 800 M⁻¹ s⁻¹ | Specificity Ratio (FIIa/FXa) [42]: 11 | FIIa kcat/KM [43]: 700 M⁻¹ s⁻¹ | Specificity Ratio (FIIa/FXa) [43]: 14 | FIIa kcat/KM [44]: 2000 M⁻¹ s⁻¹ | Specificity Ratio (FIIa/FXa) [44]: 3
